# According to patent US20260232826A1, “ANTIBODY-DRUG CONJUGATES AND THEIR USES” (Mablink Bioscience, priority 2022, published 2026):
# Protein sequences, listed by entry. Tags and fused reporters are not part of them. Residues count along the entry.
# UniProt P15328, 25-234 limits assumed: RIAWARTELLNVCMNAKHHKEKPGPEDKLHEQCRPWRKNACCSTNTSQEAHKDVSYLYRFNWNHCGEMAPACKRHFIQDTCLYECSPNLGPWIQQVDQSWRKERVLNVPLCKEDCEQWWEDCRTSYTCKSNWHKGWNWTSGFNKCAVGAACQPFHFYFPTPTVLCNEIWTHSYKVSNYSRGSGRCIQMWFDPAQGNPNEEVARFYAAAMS
# Read-outs that look alike come from different tables or passages of the source.
# B1: F-VA-EXA (conjugate)
# heavy chain: EVQLVESGGGVVQPGRSLRLSCSASGFTFSGYGLSWVRQAPGKGLEWVAMISSGGSYTYYADSVKGRFAISRDNAKNTLFLQMDSLRPEDTGVYFCARHGDDPAWFAYWGQGTPVTVSSASTKGPSVFPLAPSSKSTSGGTAALGCLVKDYFPEPVTVSWNSGALTSGVHTFPAVLQSSGLYSLSSVVTVPSSSLGTQTYICNVNHKPSNTKVDKKV[gap - human IgG1 Fc]
# light chain: DIQLTQSPSSLSASVGDRVTITCSVSSSISSNNLHWYQQKPGKAPKPWIYGTSNLASGVPSRFSGSGSGTDYTFTISSLQPEDIATYYCQQWSSYPYMYTFGQGTKVEIKRTVAAPSVFIFPPSDEQLKSGTASVVCLLNNFYPREAKVQWKVDNALQSGNSQESVTEQDSKDSTYSLSSTLTLSKADYEKHKVYACEVTHQGLSSPVTKSFNRGEC
# modifications: N-methyl
# Experiments:
# [1] = rat, in vivo, iv, 5 mg/kg
# [2] = tested on: OV-90 cancer model; assay: In vivo efficacy, OV-90 xenograft; conditions: IV once at 30 mg/kg (FIG. 11)
# Description: (§1) Four to five-week-old female CB-17 severe combined immunodeficient (SCID) mice are obtained and quarantined for 7 days prior to study initiation. Mice are inoculated subcutaneously with cells (5-10×10^6 cells per mouse) resuspended in PBS (OV-90, SW-620, KB, BT-474 cell lines) or 50% BD Matrigel (Corning®) in PBS (PA-1, IGROV-1, OVCAR-3, NCI-H2110 cell lines). When average tumor volume reached about 120-150 mm^3 mice are randomized (typically 7 mice per group) and treated by a single (unless stated otherwise) intravenous injection of PBS (negative control) or investigated antibody-drug conjugate. Tumor volumes are measured every 3-5 days using a caliper device (length×width) and calculated using the following formula V=4/3×π×R3, where R represents the radius. Mice are sacrificed when the tumor volume exceeded 1500 mm^3 or in case of ulceration of the tumor.
# as §1, with “were” for “are”, “obtained from Janvier labs (Le Genest-Saint-Isle, France)” for “obtained”, “V=4/3×π×R^3,” for “V=4/3×π×R3,”
# [3] = tested on: SW-620 cancer model; assay: In vivo efficacy, SW-620 xenograft; design: species or system SCID mice
# Description: as §1
# as §1, with “were” for “are”, “obtained from Janvier labs (Le Genest-Saint-Isle, France)” for “obtained”, “V=4/3×π×R^3,” for “V=4/3×π×R3,”
# [4] = tested on: cancer xenograft models; assay: In vivo xenografts experiments overall (effective dose range); design: species or system SCID mice; conditions: Table 10
# Description: as §1
# as §1, with “were” for “are”, “obtained from Janvier labs (Le Genest-Saint-Isle, France)” for “obtained”, “V=4/3×π×R^3,” for “V=4/3×π×R3,”
# [5] = Mice tolerability experiment (SCID mice); assay type: in vivo
# Experimental: To assess mice preclinical therapeutic index, mouse tolerability experiments were performed with F-VA-EXA, F-LALA-VA-EXA and M-SORAV conjugates. […] Mice were carefully monitored for weight loss or apparent signs of toxicity over the course of 21 days.
# [6] = target: T1, recombinant human folate receptor alpha protein (Homo sapiens, UniProt P15328); assay: kd (1/s)
# T1 construct: purchased Sino Biological 11241-H08H
# Description: Table printed on a drawing sheet, FIGURE 5
# Head of the field: kd (1/s)
# Footnotes: ka: association rate constant, mean calculated over replicates / s.d. ka: standard deviation of association rate constant / kd: dissociation rate constant, mean calculated over replicates / s.d. kd: standard deviation of dissociation rate constant / KD: affinity constant, calculated as kd/ka / s.d. KD: standard deviation of affinity constant / n.d.: not determined
# The patent's description of the figure: FIG. 5 represents in vitro surface plasmon resonance (SPR) binding experiments of conjugates against recombinant human folate receptor alpha protein, according to example 8.
# First copying reader's note: Records are a mix of naked antibodies and their antibody-drug conjugates; the numbers 5, 10, 15, 20 at the left margin are line numbers, not table content.
# Where the first naming reader finds the target: description_of_the_figure: binding experiments of conjugates against recombinant human folate receptor alpha protein
# [7] = FIGURE 19
# Description: Table printed on a drawing sheet, FIGURE 19
# The patent's description of the figure: FIG. 19 represents in vivo rat pharmacokinetic assessment of total mAb, total ADC and free exatecan sub-components of conjugates, according to example 14.
# First reader's note: Pharmacokinetic parameters refer to the Total ADC analyte of each conjugate.
# [8] = Pulmonary inflammatory and toxicity evaluation in mice; design: species or system C57/BL6 mice; Lung inflammatory level by CD45 expression (leucocyte infiltration): key to the marks not given beside the values; conditions: mouse, in vivo
# Description: Bleomycin has been widely used in rodents to model pulmonary fibrosis for the study of mechanisms involved in fibrogenesis and for evaluation of potential therapies. To assess ADC pulmonary toxicity, bleomycin-induced pulmonary fibrosis was induced in mice following known procedures as described by Walter and Kleeberger, Mouse Models of Bleomycin-Induced Pulmonary Fibrosis, 2008, Curr. Protoc. Pharmacol. 40:5.46.1-5.46.17. At day 0, 4 and 8, female C57/BL6 mice (Janvier Labs, Le Genest-Saint-Isle, France) were lightly anesthetized with isoflurane and intranasally administered with 20 μL of 1 mg/kg bleomycin PBS solution (Bleomycine Bellon, 15 mg for injection) or PBS (negative control mice). Non-bleomycin-conditioned mice were included as a negative control group. At day 11, mice (n=6 animals per group) were treated with tested conjugates (10 mg/kg i.p.) and were monitored for apparent signs of toxicity and weight loss during the duration of the experiment. […] At day 25 all mice were sacrificed, broncho-alveolar supernatant was obtained (by broncho-alveolar lavage) and lungs organs were harvested, weighted, and fixed in 0.1% (w/v) formaldehyde in PBS. After fixation, lungs were rinsed with a 0.02% (w/v) sodium azide in PBS solution and embedded in paraffin for histological staining. Slides were stained with anti-CD45 antibody (Abcam cat #ab10558, 1:500) to quantify level of leucocyte infiltration in the lungs. Secondary biotinylated goat anti-rabbit antibody (Vector Laboratories cat #BA-1000, 1:300) and Avidin-HRP (Vector Laboratories cat #A-2004) were used for detection. Histological experiments and imaging were outsourced at the Centre d'Imagerie Quantitative Lyon-Est (CiQLE) platform (Lyon, France). Random sections of IHC images (30% zoomed) were processed using native functionalities of the Fiji software (developed and maintained by the Laboratory for Optical and Computational Instrumentation of the University of Wisconsin-Madison, USA) to count CD45 positive cells within slides (1 slide per lung) and assess level of leucocyte infiltration. Monitoring of total counts of lymphocytes (CD3/CD4), eosinophils (CCR3/SiglecF), neutrophils (Ly6g/Ly6C) and macrophages (F4/80) in broncho-alveolar supernatants obtained from non-bleomycin-conditioned mice was done by flow cytometry. Inflammatory cytokines levels in broncho-alveolar supernatants obtained from non-bleomycin-conditioned mice were quantified by ELISA. IL-2, IL-4, IL-5, IL-6, IL-9, IL-10, IL-13 were quantified using Bio-Plex Pro™ Mouse Cytokine Th2 Panel (Bio-Rad cat #L60000UKVT), following manufacturer's instructions. TGF-β and IL-17 were quantified using Mouse TGF-beta 1 DuoSet and Mouse IL-17 DuoSet ELISA kits respectively (R&D systems cat #DY1679 and DY421), following manufacturer's instructions.
# Statistical significance was evaluated using one-way ANOVA (Tukey method) using GraphPad Prism 9 software. p-values are represented as * (p<0.033), ** (p<0.002), *** (p<0.0002), and **** (p<0.0001) and “ns” stands for non-significant (p>0.123).
# [9] = tested on: KB cancer model; assay: In vivo efficacy, KB xenograft; design: species or system SCID mice; conditions: IV once at 3, 6 and 12 mg/kg; NEG-VA-EXA 12 mg/kg (FIG. 13)
# Description: as §1
# as §1, with “were” for “are”, “obtained from Janvier labs (Le Genest-Saint-Isle, France)” for “obtained”, “V=4/3×π×R^3,” for “V=4/3×π×R3,”
molecule,measurement,setting,value
B1,clearance rates,[1],slow clearance rates
same,half-life,[1],13 to 15 days
same,toxicities observed in OV-90 xenograft study,[2],No toxicities were observed
same,"antitumor activity, SW-620 xenograft","[3]; IV once at 1, 3 and 6 mg/kg, NEG-VA-EXA 6 mg/kg (FIG. 10)",equally highly active at a dose of 1 mg/kg and above
same,"antitumor activity, SW-620 xenograft","[3]; IV once at 5, 10 or 15 mg/kg (FIG. 9)",highly active at a dose of 5 mg/kg and above
same,Effective dose (ED) range based on in vivo xenografts experiments (SCID mice),[4],1 to 10 mg/kg
same,Maximum Tolerated Dose in SCID mice (MTD),[5]; Table 10,Above 200 mg/kg
same,tolerability in SCID mice,"[5]; single intraperitoneal dose of 200 mg/kg, 21 days (FIG. 18)",well tolerated with no apparent signs of toxicity
same,kd,[6],0.0306 s⁻¹
same,AUC0-inf,[7],3501 µM/day
same,Clearance rate,[7],5.0 mL/day/kg
same,Vss (steady-state Vd),[7],0.11 L/kg
same,half-life,[7],13.5 days
same,Lung inflammatory level by CD45 expression (leucocyte infiltration),[8],++
same,inflammatory cytokine levels in broncho-alveolar supernatants compared to untreated group,[8],no significant increase in cytokine levels
same,leucocyte inflammatory infiltration (IHC CD45) compared to untreated group,[8],no significant increase
same,lymphocyte counts in broncho-alveolar supernatants compared to untreated control group,[8],significant increase in lymphocyte counts
same,"macrophages, neutrophils and eosinophils counts in broncho-alveolar supernatants compared to untreated control group",[8],no statistically significant increase
same,leucocyte inflammatory infiltration (IHC CD45) compared to bleomycin-conditioned control group,"[8]; ip, 10 mg/kg",significant increase
same,"antitumor activity, KB xenograft",[9],equally active at a dose of 3 mg/kg and above
